Biological target: Adenosine receptor A3 (Homo sapiens, UniProt P0DMS8)
Test: Displacement of [125I]AB-MECA from adenosine A3 receptor from HEK293 cell membranes
Format: cell-based

Amino acid sequences for entries named in this document (tags omitted).
UniProt P0DMS8, whole entry: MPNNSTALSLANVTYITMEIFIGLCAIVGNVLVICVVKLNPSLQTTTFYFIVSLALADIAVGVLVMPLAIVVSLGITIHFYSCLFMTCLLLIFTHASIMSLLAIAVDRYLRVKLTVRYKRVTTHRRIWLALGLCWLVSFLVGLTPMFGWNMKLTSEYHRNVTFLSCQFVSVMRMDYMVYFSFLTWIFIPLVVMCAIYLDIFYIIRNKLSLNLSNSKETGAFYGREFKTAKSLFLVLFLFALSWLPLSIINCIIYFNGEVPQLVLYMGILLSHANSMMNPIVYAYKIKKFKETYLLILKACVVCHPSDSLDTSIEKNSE

CNC(=O)[C@H]1O[C@@H](n2cnc3c(NCc4ccc(N)c(I)c4)ncnc32)[C@H](O)[C@@H]1O
Ki: 1.5 nM

Source: ChEMBL document CHEMBL1131608, “Structure-activity relationships and molecular modeling of 3, 5-diacyl-2,4-dialkylpyridine derivatives as selective A3 adenosine receptor antagonists” (J Med Chem, 1998)
